The results in this text go back to EP1534672B1, “RETINOL DERIVATIVES, THEIR USE IN THE TREATMENT OF CANCER AND FOR POTENTIATING THE EFFICACY OF OTHER CYTOTOXIC AGENTS” (priority 2002, dated 2004).

SMILES strings stand for the structures.

This data set in a line: single dose i.p. toxicity study in rats. As to conditions: 100 mg/kg body weight.

`CC1=C(/C=C/C(C)=C/C=C/C(C)=C/C(=O)N[C@@H](CS(=O)(=O)O)C(=O)O)C(C)(C)CCC1` [compound I-1, N-(all-trans-Retinoyl)-L-cysteic acid]: the mortality entry was “did not produce mortality”. `CC1=C(/C=C/C(C)=C/C=C/C(C)=C\C(=O)N[C@@H](CCS(=O)(=O)O)C(=O)O)C(C)(C)CCC1` [compound II-3, N-(13-cis-Retinoyl)-L-homocysteic acid]: the mortality result was “did not produce mortality”.
